AlphaSeq binding of Ab-14 light chain variants to a spike HR2 peptide

The measurements come from Li et al. 2023 (doi:10.1038/s41467-023-39022-2) through the FLAb antibody collection.

Antigen: PDVDLGDISGINAS, a 14-residue peptide of the SARS-CoV-2 spike HR2 region.

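Phage display of a naive human antibody library on the peptide gave the parent. This is the validation round: designs drawn from the data on random variants, tested in the same kind of assay. Their group label is 14L_Ctrl (Ctrl: baseline library sampled from a position-specific scoring matrix, with some repeated check sequences). Affinity was read by AlphaSeq, a pooled yeast mating assay with surface-displayed partners. Mating (16 h, 30 °C) was followed by selection of diploids and sequencing of their barcodes. Scores were corrected for input abundance and mapped to Kd with protein pairs of known affinity run in the same pool. Mating was done six times.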

Parent: Ab-14, a human scFv built as VH, a 15-residue (Gly4Ser)3 linker, VL. Only the CDRs of the light chain vary.
VH: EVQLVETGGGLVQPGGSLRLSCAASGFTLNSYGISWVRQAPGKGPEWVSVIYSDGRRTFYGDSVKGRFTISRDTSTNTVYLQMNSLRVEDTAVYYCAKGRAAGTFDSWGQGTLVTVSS
VL: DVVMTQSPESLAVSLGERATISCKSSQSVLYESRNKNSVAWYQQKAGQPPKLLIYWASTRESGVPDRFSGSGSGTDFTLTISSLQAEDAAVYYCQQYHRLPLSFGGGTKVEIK

Each variant is given by its three light chain CDRs, as the data file delimits them; those of the parent are KSSQSVLYESRNKNSVA, WASTRES, QQYHRLPLS. Values are log10 of the apparent Kd in nM; lower means stronger binding. Replicates are averaged; those with no signal do not enter the mean. "n.d." marks a missing value. The strain was present, yet no cells mated with the target were sequenced in that replicate, which points to weak or no binding.

| # | CDR-L1 | CDR-L2 | CDR-L3 | log10 Kd, replicates | mean, log10 nM | control signals |
|---|---|---|---|---|---|---|
| 1 | KSSQSVLMESRNKNSVA | WASRRES | QQYHRLPLS | n.d. / n.d. / n.d. / n.d. / n.d. / n.d. | n.d. | 0 of 18 |
| 2 | KFSQSVLYESRNKNSVA | AASTRES | QQYHRLPLS | n.d. / n.d. / n.d. / n.d. / n.d. / n.d. | n.d. | 0 of 18 |
| 3 | KTSQSVLYESREKNSIA | GASTRES | QQYHRLPLS | 0.36 / 0.14 / 0.16 / 0.56 / 0.23 / 0.30 | 0.29 | 0 of 18 |
| 4 | KISQSVLYEHRNKNSVA | WASTRES | QQYHRLPLS | 0.78 / 0.91 / 0.65 / 0.66 / 0.69 / 0.80 | 0.75 | 2 of 18 (2.54) |
| 5 | EVSQSVLYESRNHNSVA | WASTREV | QQYHRLPLS | 1.39 / n.d. / 1.57 / n.d. / 0.61 / n.d. | 1.19 | 0 of 18 |
| 6 | VSSQSVLYESRNKNSVA | DASTRES | QQYHRLPLS | 0.81 / 0.63 / 0.42 / 0.61 / 0.65 / 0.59 | 0.62 | 2 of 18 (2.99) |
| 7 | KSSQSVLYEMRNKNSVA | NASTRES | QQYHRLPLS | 0.61 / 1.07 / 1.13 / 1.42 / 1.18 / 1.09 | 1.08 | 1 of 18 (2.25) |
| 8 | KSVQSVLYESRNKNSMA | WASTRES | QQYHRLPLV | n.d. / n.d. / n.d. / n.d. / n.d. / n.d. | n.d. | 0 of 18 |
| 9 | KSSDSVDDESRNKNSVA | KASTRES | QQYHRLPLS | 0.23 / -0.04 / -0.18 / -0.01 / 0.16 / 0.07 | 0.04 | 1 of 18 (2.17) |
| 10 | KSSQSVLRESRTKNSVA | YASERES | QQYHRLPLS | 1.49 / n.d. / n.d. / 1.28 / 1.16 / 1.42 | 1.34 | 2 of 18 (2.75) |
| 11 | KSSQSVLYESRNQNPVA | GASTRES | QQYHRLPLV | 1.09 / 1.49 / 1.47 / 1.01 / 1.24 / 1.44 | 1.29 | 0 of 18 |
| 12 | KSSDLVLYESRNKNSVA | QASTRES | QQYHRLPLS | 0.97 / 0.19 / 0.29 / 0.43 / 0.80 / 0.45 | 0.52 | 1 of 18 (3.59) |
| 13 | KSSQSVLYESRNKNSVA | GASTRVS | QQYHHLPLS | 1.49 / 1.28 / 1.17 / 1.40 / 1.34 / 1.40 | 1.35 | 2 of 18 (3.91) |
| 14 | KSSQSVLYESRNKNSVA | EASTRET | QQYDRLPLS | 1.29 / 1.08 / 0.70 / 0.59 / 0.67 / 0.87 | 0.87 | 2 of 18 (2.39) |
| 15 | KSSQSFLYESRNVNSVA | WASTRES | QQYHRLPLY | n.d. / n.d. / 1.67 / n.d. / n.d. / n.d. | 1.67 | 1 of 18 (2.39) |
| 16 | KSPQSLLYESRNKNSVA | WASTRES | QQYHRLPLS | n.d. / n.d. / n.d. / n.d. / n.d. / n.d. | n.d. | 0 of 18 |
| 17 | KIQQSVLYESRNKNAVA | WASTRES | QQYHRLPLS | 0.42 / 0.38 / 0.37 / 0.32 / 0.06 / 0.19 | 0.29 | 0 of 18 |
| 18 | KSMQSVLYESTNKNSVA | WSSTRES | QQYHRLPLS | 2.38 / n.d. / n.d. / n.d. / 2.39 / 5.13 | 3.30 | 1 of 18 (3.22) |
| 19 | KSSKSVLYESRGKNSVA | WASTRDS | QQPHRLPLS | n.d. / n.d. / n.d. / n.d. / 2.30 / n.d. | 2.30 | 0 of 18 |
| 20 | KMSQSDLVESNNKNSVA | WASTRES | QQYHRWPLS | 2.48 / 3.03 / 1.64 / 3.23 / 1.82 / 3.63 | 2.64 | 0 of 18 |
| 21 | KSPQSVLYESRNKHSVA | WANTRES | EQYHSLPLS | n.d. / n.d. / n.d. / n.d. / n.d. / n.d. | n.d. | 0 of 18 |
| 22 | KSSQSVLDESSNKNSVA | WCSTRES | QQYHRLPLD | 2.36 / n.d. / n.d. / n.d. / 1.56 / 1.55 | 1.83 | 2 of 18 (2.73) |
| 23 | KSSQSVLYESRNKNSVA | KGSTRES | QQYHRSPLS | n.d. / n.d. / n.d. / n.d. / n.d. / n.d. | n.d. | 0 of 18 |
| 24 | KSSQDVLYESKNKNSVA | GASTRES | QQYHRLPLS | 0.06 / -0.20 / -0.37 / -0.15 / -0.06 / 0.22 | -0.09 | 0 of 18 |
| 25 | KSSQSVLYESCAKNSVA | WASTRES | QQYHRLPLS | 0.93 / 0.57 / 1.04 / 0.31 / 0.18 / 1.91 | 0.82 | 2 of 18 (3.02) |
| 26 | KSSQSDCYESRNRNSVA | YASTRES | QQYHRMPNS | n.d. / n.d. / n.d. / n.d. / n.d. / n.d. | n.d. | 0 of 18 |
| 27 | KWSQSVQYSSRNKNSVA | NASTRES | QQYHRLPLS | 0.37 / 0.22 / 0.25 / 0.20 / 0.34 / 0.37 | 0.29 | 1 of 18 (2.50) |
| 28 | KGSQSVLYDSRNKNSVA | WASTRES | QQYHRLPLS | 1.81 / n.d. / n.d. / 2.61 / 2.68 / n.d. | 2.36 | 1 of 18 (1.93) |
| 29 | KSSQSVLYESRRGNSVA | SATERES | QQYHRLPLS | 0.78 / 0.57 / 0.50 / 0.47 / 0.56 / 0.78 | 0.61 | 0 of 18 |
| 30 | KSSQSVLYFDNNKNSVA | GASTREA | QQYHRLPLS | 0.20 / -0.16 / 0.05 / 0.16 / 0.43 / 0.73 | 0.23 | 0 of 18 |
| 31 | LSSQSVLYESRDKNSVA | WASTRES | QQYHRLPLS | 1.72 / 2.04 / n.d. / 0.81 / 1.64 / 2.57 | 1.76 | 0 of 18 |
| 32 | KSSQSGLYELRNKNSVA | WASTRES | QQYTRLPLS | 1.39 / n.d. / n.d. / n.d. / n.d. / n.d. | 1.39 | 0 of 18 |
| 33 | KSSQSVLGESRNKNSVA | WASTRPV | QQQHRLPLS | n.d. / n.d. / n.d. / n.d. / n.d. / n.d. | n.d. | 0 of 18 |

The closing 3 entries, repeated:

{"CDR-L1": "LSSQSVLYESRDKNSVA", "CDR-L2": "WASTRES", "CDR-L3": "QQYHRLPLS", "log10 Kd, replicates": "1.72 / 2.04 / n.d. / 0.81 / 1.64 / 2.57", "mean, log10 nM": "1.76", "control signals": "0 of 18"}
{"CDR-L1": "KSSQSGLYELRNKNSVA", "CDR-L2": "WASTRES", "CDR-L3": "QQYTRLPLS", "log10 Kd, replicates": "1.39 / n.d. / n.d. / n.d. / n.d. / n.d.", "mean, log10 nM": "1.39", "control signals": "0 of 18"}
{"CDR-L1": "KSSQSVLGESRNKNSVA", "CDR-L2": "WASTRPV", "CDR-L3": "QQQHRLPLS", "log10 Kd, replicates": "n.d. / n.d. / n.d. / n.d. / n.d. / n.d.", "mean, log10 nM": "n.d.", "control signals": "0 of 18"}

A sequence measured in both rounds can read differently, since the two assays cover different ranges. As a blank, each scFv also met three strains without target: over all light chain designs, 4% of these pairings were detected, typically at 2.64 and seldom below 1.59. For each scFv, signals with the empty controls are counted beside the result, with their mean in brackets. The authors' rule: three or more of the six replicates give a measured affinity, fewer mean a poor binder. Of ten entries with the parent sequence, four were seen in most replicates (averages 0.34 to 2.37), three in one and three in none, so single entries are noisy.